Values of other authors as cited in US20180280372A1, “COMPOSITIONS AND METHODS FOR INHIBITING AUTOPHAGY AND CONTRACEPTION” (Washington University, priority 2016, published 2018).

Tests used:
Details in all cases: cited from earlier work
[1] = biological target: mTOR (Homo sapiens, UniProt P42345)
[2] = biological target: dopamine D2 receptor (Homo sapiens, UniProt P14416)
[3] = biological target: HDAC1 (Homo sapiens, UniProt Q13547)

For GDC-0349, the Ki [1] is listed as 3.8 nM and the “inhibitory effect against PI3Kα and other 266 kinases” value ([1]; mTOR vs PI3Kα and other 266 kinases) is listed as 790 fold.
For Trifluoperazine 2HCl, the IC50 [2] is given as 1.1 nM.
In the case of CI994, the IC50 [3] is listed as 570 nM.
